Screening results deposited in PubChem by National Center for Advancing Translational Sciences (NCATS).
Hits are enriched below; roughly 16% of the tested compounds scored in any of these assays.
uPA generation: blocks generation of uPA at the cell surface | cell surface uPA generation assay, qHTS | Potency, µM (titrated, usually from 38.3 µM), for inactives: at the highest dose activity change, negative = inhibition, actives largely listed as inhibitors | 330,000 compounds, 0.31% hits; active = well fitted inhibition curve with a large enough effect; inconclusive = small, poorly fitted or top-dose-only effect; inactive = no such curve, though single readings can be large or run the other way; tested in mouse RAW 264.7 cells; also: potency is read from the fitted curve at half-maximal effect; % is scaled to controls: 0 for no effect and ±100 for the full control effect; nearly all actives have a fitted effect of over 55% in size
TDP1 cell noCPT: qHTS for Inhibitors of human tyrosyl-DNA phosphodiesterase 1 (TDP1): qHTS in cells in absence of CPT | DT40 Tdp1-/- hTDP1 cells, no CPT, ATP luminescence, 48 h | Potency, µM (doses to about 46.2 µM), without a hit: at the highest dose activity change, negative = growth inhibition, actives largely listed as inhibitors | 420,000 compounds, 15% hits; also: potency is read from the fitted curve at half-maximal effect; % is scaled to controls: 0 for no effect and ±100 for the full control effect; nearly all actives have a fitted effect of over 55% in size
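Seeded 400 DT40-hTDP1 cells/well (vehicle DMSO, no 20 nM CPT); pinned compounds; ≥48 hr at 37 °C; CellTiter-Glo luminescence as viability measure.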
miR-21 FLuc: miR-21 reporter, rising signal | HeLa miR-21 FLuc reporter, luciferase, 48 h | Potency, µM (top dose mostly 38.3 µM), inactives show at the highest dose reporter change, positive = more light | 340,000 tested, under 10 active | AID 2288; active = well fitted rising curve with a large enough effect; inconclusive = small, poorly fitted or top-dose-only effect; inactive = no such curve, though single readings can be large or run the other way;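 note: % of control where 0% means no effect; miR-21 action dims this reporter so a rising signal means less miR-21 action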
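HeLa cells stably expressing CMV-driven firefly luciferase with a downstream miR-21 binding sequence, endogenously expressing miR-21, were treated with titrations (up to about 40uM final) for 48 hours at 37 degree Celsius. Luciferase luminescence was read after lysis.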
TDP1 inh: blocks human tyrosyl-DNA phosphodiesterase 1; Potency, µM (top dose mostly 130 µM), inactives show top-dose activity change, negative = inhibition, actives largely listed as inhibitors; 350,000 compounds, 0.28% hits; recombinant TDP1, AlphaScreen DNA substrate cleavage; AID 485290; also: potency is read from the fitted curve at half-maximal effect; % is scaled to controls: 0 for no effect and ±100 for the full control effect; nearly all actives have a fitted effect of over 40% in size
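Enzyme-compound mixtures sat 15 min at room temperature, followed by a 5 min reaction with 15 nM final substrate and 10 min with AlphaScreen beads. Recombinant human Tdp1 was used at 1 nM final.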
TDP1 cell CPT: growth inhibition of DT40 Tdp1-/-;hTDP1 cells with camptothecin (screen for TDP1 inhibitors) | 420,000 compounds, 12% hits | AID 686979 | Potency, µM (doses to about 46.2 µM), without a hit: top-dose activity change, negative = growth inhibition, actives largely listed as inhibitors | chicken DT40 Tdp1-/-;hTDP1 cells + 20 nM CPT, ATP luminescence, 48 h; also: potency is read from the fitted curve at half-maximal effect; % is scaled to controls: 0 for no effect and ±100 for the full control effect; nearly all actives have a fitted effect of over 55% in size
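Cell growth measured by CellTiter-Glo luminescence after a minimum 48 h, 37 C compound exposure with 20 nM CPT in Tdp1-knockout DT40 cells stably expressing hTDP1, seeded 400/well; qHTS titration format.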
* = called active by the depositor; [ ] = another dose, or the depositor's remark. Unless noted, calls follow the shape of the dose curve; as a rule, active = well fitted curve in the direction sought with a large enough effect; inconclusive = small, poorly fitted or top-dose-only effect, or another doubt; inactive = no such curve, though single readings can be large; an effect the other way counts as inactive or inconclusive.

CC(=O)C1=CCC(c2ccc(C)o2)N(S(=O)(=O)c2ccc(C)cc2)C1 (stereo not given) was read as TDP1 cell noCPT 18.4µM* and TDP1 cell CPT 16.4µM*.
`Nc1ccnc(C(F)(F)F)c1C(=O)c1ccccc1` gave uPA generation 4.4%, TDP1 cell noCPT -9.8%, miR-21 FLuc 3.4%, TDP1 inh 2.9% and TDP1 cell CPT -11.7%.
`CCCCCCC(=O)N(O)C1CC(=O)N(c2ccc(C)cc2)C1=O` (stereo not given) gave uPA generation -11.4%, TDP1 cell noCPT 5.8µM*, miR-21 FLuc 15.8%, TDP1 inh 7.0% and TDP1 cell CPT 2.91µM*.
Screening CCCCCCC(=O)N(O)C1CC(=O)N(c2ccc(Cl)cc2)C1=O (stereo not given) returned uPA generation -5.5%, TDP1 cell noCPT 2.91µM*, miR-21 FLuc -10.0%, TDP1 inh 9.6% and TDP1 cell CPT 2.31µM*.
`COc1ccc(-n2nnnc2S(=O)(=O)CC(=O)N2CCCCC2)cc1` gave uPA generation inconclusive, TDP1 cell noCPT 1.46µM*, miR-21 FLuc inconclusive, TDP1 inh 0.0% and TDP1 cell CPT 2.59µM*.
COc1cc(OC)cc(-n2nnnc2SCC(=O)N2CCCC2)c1 was read as uPA generation 4.1%, TDP1 cell noCPT -28.1%, miR-21 FLuc -3.8%, TDP1 inh 0.0% and TDP1 cell CPT -4.1%.
COc1ccc(-n2nnnc2S(=O)(=O)Cc2ccc(C(=O)O)cc2)cc1 was read as TDP1 cell noCPT 16.4µM*, miR-21 FLuc 7.9%, TDP1 inh 4.1% and TDP1 cell CPT 14.6µM*.
`COc1cc(C(=O)Nc2cccc(C)c2C)c(Br)c(OC)c1OC` gave uPA generation 14.0%, TDP1 cell noCPT 7.4%, miR-21 FLuc -0.1%, TDP1 inh 2.7% and TDP1 cell CPT -1.9%.
Screening CCOC(=O)c1cccc(NC(=O)/C=C/c2ccc([N+](=O)[O-])cc2)c1 returned uPA generation 0.5%, TDP1 cell noCPT 8.2µM*, miR-21 FLuc -13.7%, TDP1 inh 4.6% and TDP1 cell CPT 14.6µM*.
CCCCN(CCCC)C(=O)/C=C/c1cccc([N+](=O)[O-])c1 was read as uPA generation 2.9%, TDP1 cell noCPT 16.4µM*, miR-21 FLuc -1.1%, TDP1 inh 3.2% and TDP1 cell CPT inconclusive.
For COC(=O)c1cccc(NC(=O)/C=C/c2cccc([N+](=O)[O-])c2)c1 the results were TDP1 cell noCPT 12.6µM*, miR-21 FLuc -19.0%, TDP1 inh 1.0% and TDP1 cell CPT inconclusive.
For CCNC(=O)COC(=O)/C=C/c1cccc([N+](=O)[O-])c1 the results were uPA generation 1.1%, TDP1 cell noCPT -14.1%, miR-21 FLuc 0.8%, TDP1 inh -5.0% and TDP1 cell CPT 1.9%.

The final 3 records of the section before lead into the next.
CCCCN(CCCC)C(=O)/C=C/c1cccc([N+](=O)[O-])c1 was read as uPA generation 2.9%, TDP1 cell noCPT 16.4µM*, miR-21 FLuc -1.1%, TDP1 inh 3.2% and TDP1 cell CPT inconclusive.
For COC(=O)c1cccc(NC(=O)/C=C/c2cccc([N+](=O)[O-])c2)c1 the results were TDP1 cell noCPT 12.6µM*, miR-21 FLuc -19.0%, TDP1 inh 1.0% and TDP1 cell CPT inconclusive.
For CCNC(=O)COC(=O)/C=C/c1cccc([N+](=O)[O-])c1 the results were uPA generation 1.1%, TDP1 cell noCPT -14.1%, miR-21 FLuc 0.8%, TDP1 inh -5.0% and TDP1 cell CPT 1.9%.
CCOC(=O)C1NN=C(C(=O)c2ccc(C)cc2)C1c1ccc(C)cc1 (stereo not given) was read as uPA generation 1.3%, TDP1 cell noCPT 20.6µM*, miR-21 FLuc -14.6%, TDP1 inh 2.6% and TDP1 cell CPT 18.4µM*.
CCOC(=O)C1=NNC(C(=O)c2ccc(Cl)cc2)C1c1ccc(OC)cc1 (stereo not given) was read as uPA generation -0.7%, TDP1 cell noCPT 18.4µM*, miR-21 FLuc 2.0%, TDP1 inh 3.0% and TDP1 cell CPT inconclusive.
`CCOC(=O)C1=NNC(C(=O)c2ccc(C)cc2)C1c1ccc(OC)cc1` (stereo not given) gave uPA generation 6.8%, TDP1 cell noCPT inconclusive, miR-21 FLuc -8.3%, TDP1 inh 2.3% and TDP1 cell CPT inconclusive.
`Cc1ccc(N2CC(C(=O)N3CCC(C(=O)Nc4ccc(Br)cc4)CC3)CC2=O)cc1` (stereo not given) gave uPA generation -4.0%, TDP1 cell noCPT inconclusive, miR-21 FLuc -1.9%, TDP1 inh 0.6%[0.0935 µM] and TDP1 cell CPT inconclusive.
CCCCNC(=O)c1onc(CS(=O)(=O)c2ccccn2)c1C(=O)NCCCC was read as uPA generation 1.9%, TDP1 cell noCPT -13.3%, TDP1 inh -1.6% and TDP1 cell CPT -1.4%.
Screening CCC(C)(C)NC(=O)C(c1sccc1C)N(Cc1ccco1)C(=O)c1csnn1 (stereo not given) returned uPA generation 1.7%, TDP1 cell noCPT 16.4µM*, miR-21 FLuc 4.8% and TDP1 cell CPT 16.4µM*.
Screening O=C1NC[C@@H](Cc2cccc3ccccc23)N(CCC23CC4CC(CC(C4)C2)C3)C1=O returned uPA generation 10.8%, TDP1 cell noCPT -17.2%, TDP1 inh -4.8% and TDP1 cell CPT inconclusive.
`CCCC(=O)NC1CCc2cc(OC)c(OC)c(OC)c2-c2ccc(OC)c(=O)cc21` (stereo not given) gave uPA generation -12.5%, TDP1 cell noCPT 0.0164µM* and TDP1 cell CPT 0.0164µM*.
C=COC(=O)NC1CCc2cc(OC)c(OC)c(OC)c2-c2ccc(SC)c(=O)cc21 (stereo not given) was read as uPA generation -9.5%, TDP1 cell noCPT 0.0164µM* and TDP1 cell CPT 0.0259µM*.
COc1cc2c(c(OC)c1OC)-c1ccc(SC)c(=O)cc1C(NC(=O)c1ccccc1)CC2 (stereo not given) was read as uPA generation -13.9%, TDP1 cell noCPT 0.0164µM* and TDP1 cell CPT 0.0146µM*.
COc1c(C=O)c2c(c(OC)c1OC)-c1ccc(OC)c(=O)cc1C(NC(C)=O)CC2 (stereo not given) was read as uPA generation -11.8%, TDP1 cell noCPT 0.0146µM* and TDP1 cell CPT 0.0082µM*.
Screening COc1c(O[C@@H]2O[C@H](CO)[C@@H](O)[C@H](O)[C@H]2O)cc2c(c1OC)-c1ccc(SC)c(=O)cc1C(NC(C)=O)CC2 (stereo not given in full) returned uPA generation inconclusive, TDP1 cell noCPT 5.1% and TDP1 cell CPT 7.6%.
Screening COc1cc2c(c(OC)c1OC)-c1ccc(OC)c(=O)cc1[C@@H](NC=O)CC2 returned TDP1 inh 4.3%.
For Cc1ccc2c(c1)-c1c(cnc3cc(-c4ccccc4)nn13)CO2 the results were TDP1 cell noCPT -6.8%, miR-21 FLuc -17.5%, TDP1 inh -9.7% and TDP1 cell CPT -21.5%.
Screening CC(=O)NCCNc1cc(-c2ccccc2C(F)(F)F)ncn1 returned TDP1 cell noCPT 7.8% and TDP1 cell CPT 34.6%.
Screening COC(=O)c1ccc2c(c1)C(NC(C)=O)CCc1cc(OC)c(OC)c(OC)c1-2 (stereo not given) returned uPA generation -16.2%, TDP1 cell noCPT 0.0206µM* and TDP1 cell CPT 0.0184µM*.
